Data reported in PubChem BioAssay AID540275 (National Center for Advancing Translational Sciences (NCATS), 2011).
Where “and” joins values, the source holds several entries; their conditions need not be identical. Identical values can stand only once. The list shows a part of the results, in another mix than the full data. Records with an inconclusive call do not appear. Calls of active or inactive are those of the source. Rule as the data show it: active = activation above about 80%; inconclusive = between about 30% and that limit; inactive = weaker than that.

Protein sequences, listed by entry. Tags and fused reporters are not part of them.
UniProt Q8NER1, whole entry, looked up: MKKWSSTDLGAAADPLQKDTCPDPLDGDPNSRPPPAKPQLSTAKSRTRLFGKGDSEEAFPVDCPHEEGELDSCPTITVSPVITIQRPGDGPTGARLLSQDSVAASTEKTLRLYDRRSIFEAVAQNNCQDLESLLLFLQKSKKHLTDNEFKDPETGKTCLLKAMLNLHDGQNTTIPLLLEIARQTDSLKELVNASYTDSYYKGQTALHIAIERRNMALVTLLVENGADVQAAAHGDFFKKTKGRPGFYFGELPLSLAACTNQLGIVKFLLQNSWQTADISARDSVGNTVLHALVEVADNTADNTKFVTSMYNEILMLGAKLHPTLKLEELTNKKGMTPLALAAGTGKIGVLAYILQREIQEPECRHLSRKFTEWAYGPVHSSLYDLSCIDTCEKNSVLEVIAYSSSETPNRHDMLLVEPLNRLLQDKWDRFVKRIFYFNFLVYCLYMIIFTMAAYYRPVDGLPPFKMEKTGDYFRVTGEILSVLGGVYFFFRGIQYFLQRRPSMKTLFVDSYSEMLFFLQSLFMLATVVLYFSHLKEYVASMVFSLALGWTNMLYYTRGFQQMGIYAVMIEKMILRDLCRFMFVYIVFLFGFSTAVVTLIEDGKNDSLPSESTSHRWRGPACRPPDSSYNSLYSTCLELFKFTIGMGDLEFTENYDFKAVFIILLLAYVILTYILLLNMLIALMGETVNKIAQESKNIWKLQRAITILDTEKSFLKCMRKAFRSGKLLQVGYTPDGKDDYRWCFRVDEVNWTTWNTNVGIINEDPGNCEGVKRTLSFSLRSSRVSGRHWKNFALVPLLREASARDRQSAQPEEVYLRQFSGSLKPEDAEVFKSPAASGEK

Each compound was assayed against Transient receptor potential cation channel subfamily V member 1 (Homo sapiens) (UniProt Q8NER1) (assay: HTS Assay for Compounds that Act as Agonists of the Vanilloid Receptor 1). Conditions: TRPV1-expressing cells, Fluo-8 calcium influx, agonist mode; at 8.33 µM; active compounds read high.
Text: The transient receptor potential ion channel, family V, number 1, (TRPV1) is one of the most important molecular transducers of painful stimuli and a potential target for analgesic drug development. Although recent clinical trials with orthosteric antagonists have not produced a successful drug because of a hyperthermia side effect and their tendency to block thermal noxious pain, this ion channel is undeniably well placed in the pain pathway, and the idea of blocking pain signals before they enter the CNS is an excellent concept and of proven efficacy when TRPV1 agonists are used. We propose a new approach involving allosteric modulation to impose an activity-dependent constraint within the context of inflammation and tissue damage that would alter the responsiveness of the channel in a way that an orthosteric vanilloid antagonist cannot achieve. We believe that the allosteric modulator approach has not been explored for this target. The main goal of this proposal is to identify additional, new, potent allosteric modulators of TRPV1 that can be used to investigate TRPV1 function. Our recent report provides evidence of proof of concept, but the compounds are just at the edge of utility in terms of potency. […] The question of whether they can be used as analgesic agents is complex, but if suitable compounds are identified then testing for analgesic properties will be conducted. NIH Chemical Genomics Center [NCGC] NIH Molecular Libraries Probe Centers Network [MLPCN] MLPCN Grant: MH089480-1A1 Assay Submitter (PI): Michael Iadarola, National Institute of Dental and Cranofacial Research
Upon TRPV1 activation in TRPV1 cells, the channel opens and extracellular cations flow through the channel into the cytosol. A calcium binding dye (Fluo-8) becomes fluorescent when bound to calcium. This dye is pre-loaded into cells and is used as a marker for calcium influx. The amount of accumulated calcium is precisely quantified using the FDSS kinetic reader and the calcium dye. For the HTS assay, freshly prepared cells are plated at a density of 2000/well in 3 ul medium in 1536-well plates and cultured overnight at 35.5C. Cells will be loaded with 1 ul of the homogeneous calcium dye (ABD Bioquest) at room temperature for 40 to 90 minutes. Plates will be loaded into the FDSS kinetic reader and a 1 sec / cycle for 10 second baseline signal will be measured. Compound library will then be added with a pintool at 23 nl and measured kinetically for 3 minutes. This portion of the read is considered the agonist portion of the screen. Following the 3 minutes of incubation, an on board pipettor will deliver 1 ul of capsaicin for a final concentration equal to the EC20. Signal will be measured kinetically for an additional 2 minutes. This portion of the read is considered the allosteric enhancer portion of the screen. The FDSS reader has a standard filter set capable of measuring calcium bound Fluo-8 (ex=480 and em=520 nm).
Also: 0% is about no effect.

Compound | activation
O=P1(Nc2ncccn2)COc2ccccc2OC1 | inactive: -6.56%
C[C@H]1OP(=O)(Oc2ccccc2)[C@H](O)[C@H](O)[C@H]1N=[N+]=[N-] (stereo partly specified) | inactive: -0.232%
O=P(Nc1nc2ccccc2s1)(c1ccccc1)c1ccccc1 | inactive: 28.6%
O=P(Nc1ccccn1)(c1ccc(Br)cc1)c1ccc(Br)cc1 | inactive: 2.2%
CN(C)C1(CNC(=O)c2ccc(Cl)c(S(N)(=O)=O)c2)CCCCC1 | inactive: -1.54%
O=C(OC1CN2CCC1CC2)c1cccc(Cl)c1 (stereo unspecified) | inactive: -4.62%
C(Cc1nn[nH]n1)Cc1nn[nH]n1 | inactive: -3.91%
Nc1ccc([As](=O)(O)c2ccc([N+](=O)[O-])cc2)cc1 | inactive: -6.19%
O=[As](O)(c1ccccc1)c1ccc(O)cc1 | inactive: 2.45%
O=[N+]([O-])c1ccc(O)c(/C=N/Nc2ccc([N+](=O)[O-])cc2[N+](=O)[O-])c1 | inactive: 1.9%
CC(=O)NC(SC(=S)N(C)C)C(Cl)(Cl)Cl (stereo unspecified) | inactive: -0.342%
O=[N+]([O-])c1ncn(CCn2cnc([N+](=O)[O-])n2)n1 | inactive: -2.36%
c1nnnn1CCn1cnnn1 | inactive: -0.705%
CC(C)C(=O)NC(Sc1ccccc1)C(Cl)(Cl)Cl (stereo unspecified) | inactive: 4.55%
O=P(Nc1nccs1)(c1ccccc1)c1ccccc1 | inactive: 2.34%
CC(C)(C)C(=O)NC(Sc1ccccc1)C(Cl)(Cl)Cl (stereo unspecified) | inactive: 4.75%
CCOc1ccc(C2=NCC(CBr)S2)cc1 (stereo unspecified) | inactive: 1.42%
O=P1(Nc2nc3ccc(Cl)cc3s2)COc2ccccc2O1 (stereo unspecified) | inactive: -8.15%
CC(=O)Nc1ccc(Oc2c([N+](=O)[O-])cc([N+](=O)[O-])cc2[N+](=O)[O-])cc1 | inactive: 3.44%
CC(=O)Nc1ccc([As](=O)(O)O)c(O)c1 | inactive: -5.53%
C[C@H]1OP(=O)(Oc2ccccc2)C[C@@H]2O[C@@H]21 (stereo partly specified) | inactive: -3.15%
C[C@@H]1C=CCP(=O)(Oc2ccccc2)O1 (stereo partly specified) | inactive: 0.692%
Cc1ccccc1CN(C)C(=O)COC(=O)C(O)(c1ccccc1)c1ccccc1 | inactive: 3.84%
CC(=O)c1ccc(N2CC2c2ccncc2)cc1 (stereo unspecified) | inactive: -3.51%

Compound | activation
CCOC(=O)NC(Sc1ccccc1)C(Cl)(Cl)Cl (stereo unspecified) | inactive: -0.532%
c1ccc(-c2nn[nH]n2)c(-c2nn[nH]n2)c1 | inactive: 5.15%
CCNC(=S)/N=C(\N)N[N+](=O)[O-] | inactive: 0.394%
O=C(NC1CCS(=O)(=O)C1)NP(=S)(Oc1ccccc1)Oc1ccccc1 (stereo unspecified) | inactive: 3.94%
O=c1c2cc([N+](=O)[O-])ccc2[nH]c2c([N+](=O)[O-])cc([N+](=O)[O-])cc12 | inactive: 8.43%
CN(C)C(=O)Oc1noc2ccccc12 | inactive: 3.56%
Cc1ccccc1OP(=O)(Nc1ccccn1)Oc1ccccc1C | inactive: 22%
CCC(=O)N1C2C3N(C(=O)CC)C1C1N(C(=O)CC)C(C(N1C(=O)CC)N3C(=O)CC)N2C(=O)CC | inactive: -1.02%
O=C(OC1CN2CCC1CC2)c1ccccc1 (stereo unspecified) | inactive: -2.08%
CC(=O)NC(SC(=S)N(CC(C)C)CC(C)C)C(Cl)(Cl)Cl (stereo unspecified) | inactive: 1.01%
COC(=O)c1cc2c(s1)N=C(c1ccccc1)N(C)P2(=O)N1CCOCC1 (stereo unspecified) | inactive: -1.14%
Cc1ccc(NP(=O)(Oc2ccccc2F)Oc2ccccc2F)nc1 | inactive: -1.96%
Cc1cc(SC(NC(=O)c2ccc(F)cc2)C(Cl)(Cl)Cl)ncn1 (stereo unspecified) | inactive: -1.69%
CCOP(=O)(Nc1ccccc1)OCC | inactive: -3.38% and inactive: 1.15%
CC(=O)Nc1ccc([As](=O)(O)O)cc1 | inactive: 3.09%
O=C(O)c1ccccc1[As](=O)(O)O | inactive: -2.09%
Nc1cccc2ccc([As](=O)(O)O)cc12 | inactive: 0.489%
CCN(N=Nc1nonc1N)c1nonc1N | inactive: -5.41%
O=[N+]([O-])c1cc([N+](=O)[O-])c(CCN2CCOCC2)c([N+](=O)[O-])c1 | inactive: -1.41%
CN1CCCC(OC(=O)C(c2ccccc2)c2ccccc2)C1 (stereo unspecified) | inactive: 2.35%
Clc1ccc(Cl)c(NC2=NCC(CBr)S2)c1 (stereo unspecified) | inactive: 13.6%
Cc1ccc(OP(=O)(Nc2nccs2)Oc2ccc(C)cc2)cc1 | inactive: 14.8%
COc1ccccc1OP(=O)(Nc1ccc(C)cn1)Oc1ccccc1OC | inactive: 6.11%
Cc1ccc(N/C(=N/P(=O)(N2CCOCC2)N2CCOCC2)N2CCOCC2)cc1 | inactive: 3.66%

Compound | activation
CN(C(=O)Cc1ccc(Cl)c(Cl)c1)[C@H]1CCCC[C@H]1N1CCCC1 | inactive: 3.72%
NC(=O)c1cc([N+](=O)[O-])cc([N+](=O)[O-])c1N | inactive: -3.13%
O=C(NC(Sc1ccncn1)C(Cl)(Cl)Cl)c1ccccc1 (stereo unspecified) | inactive: 0.882%
Cc1c2non([O-])c-2c(C)[n+](=O)[n+]1[O-] | inactive: 1.59%
Oc1ccccc1CNc1ccccn1 | inactive: 12.2%
Nc1cc(N)c2nonc2c1[N+](=O)[O-] | inactive: 0.262%
CCc1nc2c(n1)c1c(non1O)c1c2no[n+]1[O-] | inactive: -0.733%
O=[N+]([O-])c1cc([N+](=O)[O-])c(CCNc2ccccc2)c([N+](=O)[O-])c1 | inactive: -0.35%
Cc1ccc(NP(=O)(Oc2ccccc2)Oc2ccccc2)nc1 | inactive: 12.2%
O=[N+]([O-])c1cccc2n[nH]nc12 | inactive: -0.86%
CC(=O)N1C2C3N(C(C)=O)C1C1N(C(C)=O)C(C(N1C(C)=O)N3C(C)=O)N2C(C)=O | inactive: -4.95%
COc1ccc(C2=NCC(CBr)S2)cc1 (stereo unspecified) | inactive: -2.82%
CC1CCN(C(=O)Oc2c(Cl)cc(Cl)c3cccnc23)CC1 | inactive: 28.3%
CN(C)C(=O)OCCc1n(C)cc[n+]1C | inactive: 1.25%
CC(C)=N/N=C(\N)N[N+](=O)[O-] | inactive: -1.91%
CCN(/C(=N/P(=O)(N1CCOCC1)N1CCOCC1)N1CCOCC1)c1ccc(OC)cc1 | inactive: 1.49%
C[N+]1=C2C=CC=CC=C2SC12C([N+](=O)[O-])=CC([N+](=O)[O-])=C[C-]2[N+](=O)[O-] (stereo unspecified) | inactive: -1.71%
Nc1ccc([As](=O)(O)c2ccc(N)cc2)cc1 | inactive: -0.155%
O=C(Nc1cc([As](=O)(O)O)ccc1O)c1ccccc1 | inactive: 8.7%
O=C(O)CNc1ccc([As](=O)(O)O)cc1 | inactive: 0.808%
O=[N+]([O-])c1cccc(NC2=NCC(CBr)S2)c1 (stereo unspecified) | inactive: -1.87%
O=[N+]([O-])c1ncn(CCn2ncnc2[N+](=O)[O-])n1 | inactive: -4.39%
CC(C)(C)C(=O)NC(Sc1ccncn1)C(Cl)(Cl)Cl (stereo unspecified) | inactive: -1.71%
